The results in this text go back to paper PMC7904827, “Development of water-soluble prodrugs of the bisdioxopiperazine topoisomerase IIβ inhibitor ICRF-193 as potential cardioprotective agents against anthracycline cardiotoxicity” (Scientific Reports, 2021).

Data set [1] in a line: Population pharmacokinetic analysis in rabbits. It counts as in vivo, rabbit. The note with it: population median, F = 1. Here is the method:
Assuming an instant input of ICRF-193 solely into the central compartment (V1) and complete conversion of the administered dose of GK-667 into ICRF-193, the disposition of ICRF-193 in plasma was best described by a three-compartment open model with first-order elimination from the central compartment. In the joint model for ICRF-193 and ICRF-193met, formation of the metabolite was modeled as a first-order process (Fig. S5), and one volume of distribution for the metabolite (V4) was added to three volumes for ICRF-193 (V1, V2, and V3).
All model parameters of ICRF-193 and ICRF-193met could not be simultaneously estimated by stochastic approximation expectation maximization (SAEM) in one step. Instead, population medians and between-subject standard deviations were first estimated for the volume (V1, V2 and V3) and clearance parameters (CLtot) for the parent molecule using the concentrations of ICRF-193. In the second step, the ICRF-193met concentration data were added, median estimates for the parameters of ICRF-193 from the first step were used as initial estimates, and their standard deviations were fixed. A maximum likelihood estimation was used to calculate the parameters CLmet, CLother, V4, and CLICRF-193met. For the remaining parameters of the parent-metabolite model (Fig. S5), a maximum a posteriori (MAP) estimation was adopted. The residual error in the population kinetic analysis was best described with a proportional model.
Standard noncompartmental analysis was performed using Kinetica software (version 4.0, Thermo Fisher Scientific Inc., USA). The population parameter estimation for nonlinear mixed effect models was conducted using Monolix version 2019R2 software (Antony, France: Lixoft SAS, 2019, http://lixoft.com/products/monolix/). The stochastic approximation expectation maximization (SAEM) algorithm coupled with Markov Chain Monte Carlo (MCMC) without the use of approximations (linearization) was used for the estimation of the likelihood. For evaluation of the goodness-of-fit, the following plots were assessed: observed versus individual predicted concentrations, weighted residuals versus time and weighted residuals versus predictions. Individual parameter values were obtained as empirical Bayes estimates. A visual predictive check with 1000 simulated data sets was performed.
Figure S5: Schematic representation of the four-compartmental parent-metabolite model […]
Hydrolysis of GK-667 is very fast and the parent compound was essentially completely cleared from plasma within 10 min after injection. ICRF-193 was quantitatively dominating at the first sampling interval (5 min). Therefore, the model assumes instant input and complete absolute […]
bioavailability of ICRF-193 (F=1). V1, V2 and V3 are volumes of central and peripheral […]
compartments for ICRF-193 and, V4 is the distribution volume for ICRF-193met. The clearance […]
characteristics are as follows: CLmet describes formation of ICRF-193met from ICRF-193; CLother […]
summarizes clearances of ICRF-193 via other elimination pathways; Q12 and Q13 are inter- […]
compartmental clearances; CLICRF-193met is the total clearance of the metabolite.
(1 picture or pasted object on this page, not shown here)

Data set [2] concerns neonatal ventricular cardiomyocytes (NVCMs). As to the kind of experiment: Intracellular concentrations in NVCMs after incubation with GK-667. In kind it is in vitro ADME, rat. Here is the method:
All samples were spiked with the internal standards. DMEM or buffer (100 μL) was diluted with an ice-cold methanol/water mixture (20:80, v/v), mixed and analyzed. Plasma (50 μL) was precipitated with ice-cold methanol (1:5, v/v), mixed (20 s) and centrifuged (10 min, 10,000 rpm, 4 °C). NVCM pellets (4.8 × 10^6 cells) were precipitated with ice-cold methanol (250 μL), mixed (20 s), sonicated in a cold ultrasonic bath (75 s), mixed (30 s) and centrifuged (10 min, 10,000 rpm, 4 °C). The supernatants from the plasma and NVCM extractions were filtered (0.22 μm, PVDF) prior to analysis. For assay of the prodrugs, the samples were acidified with formic acid to a final concentration of 0.5%.
GK-667 (100 μM) was incubated (37 °C, 5% CO2, CelCulture Incubator) with NVCMs in the medium (DMEM/F12 supplemented with 1% P/S) for 24 h. Both DMEM and NVCMs were harvested at 3, 6, 12 and 24 h. Immediately after sampling, DMEM was treated and analyzed. Cardiomyocytes were scrapped, washed twice with PBS buffer (4 °C), and centrifuged (700 × g, 10 min, 4 °C). The redundant supernatant was discarded, and the pellet was immediately treated and analyzed. All experiments were performed in triplicate, and the results are expressed as the mean ± SD.

In the case of ICRF-193 [reference compound], the CLmet in data set [1] (formation clearance of ICRF-193met from ICRF-193, rabbits) stood at 1.35 mL/min/kg. In data set [1] (rabbits, GK-667 5 mg/kg i.v.), this substance had a CLother of 26.7 mL/min/kg, a CLtot of 28.3 mL/min/kg, a Q12 of 23.3 mL/min/kg and a Q13 of 0.583 mL/min/kg. In data set [1] (rabbits, GK-667 5 mg/kg i.v.), this substance displayed a V1 of 0.36 L/kg, a V2 of 0.67 L/kg and a V3 of 0.98 L/kg. Besides, the “highest intracellular concentration of ICRF-193” value in data set [2] (NVCMs incubated with GK-667 100 µM, 37 °C, first sampling interval (3 h)) was “approximately 10 pmol/10^6 cells”. In data set [2] (NVCMs, GK-667 100 µM, DEX value from ref 20), the “peak intracellular ICRF-193 concentration relative to that previously determined for DEX” value is “approximately 50%”.
